Source: PubChem BioAssay AID1257 (The Scripps Research Institute Molecular Screening Center, 2008)
The entries are a selection whose mix differs from that of the whole data set. Calls of active or inactive are those of the source.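 Rule for the calls: active = mean inhibition of triplicate wells above the hit cutoff set in the primary screen (cut at about 17% in these data); inactive = the rest.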

Chains of the proteins cited; added tags and fusions are not shown.
UniProt P49146, whole entry, looked up: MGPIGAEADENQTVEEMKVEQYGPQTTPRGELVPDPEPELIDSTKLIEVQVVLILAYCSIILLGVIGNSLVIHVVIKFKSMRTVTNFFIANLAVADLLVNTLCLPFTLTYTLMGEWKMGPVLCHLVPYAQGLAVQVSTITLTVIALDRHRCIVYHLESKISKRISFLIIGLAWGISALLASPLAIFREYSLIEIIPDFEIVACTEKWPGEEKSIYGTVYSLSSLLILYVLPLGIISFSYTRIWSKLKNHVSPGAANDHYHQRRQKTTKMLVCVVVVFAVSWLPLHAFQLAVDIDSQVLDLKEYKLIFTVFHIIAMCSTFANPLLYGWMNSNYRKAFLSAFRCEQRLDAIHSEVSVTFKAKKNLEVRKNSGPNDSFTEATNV

Molecular target: Neuropeptide Y receptor type 2 (Homo sapiens) (UniProt P49146)
Test: blockers of human NPY-Y2 signalling – HEK293-CNG cells, membrane potential fluorescence, triplicate, confirmation (AID 1257);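 note: 0% = DMSO with NPY challenge and 100% = BIIE0246 high control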
Settings: HEK293 NPY-Y2 CNG channel, at 2.8 µM, active compounds read high
Summary of the method: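 Material: HEK293 cells expressing NPY-Y2 receptor and CNG channel; Control set: BIIE0246 as high control, DMSO as low control; Measured by: membrane potential dye fluorescence; Also added: NPY 8 nM plus isoproterenol 1 µM, Ro 20-1724 25 µM; Doses: single nominal compound dose of 2.8 µM; Times: 60 min NPY incubation, room temperature.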

Q: `CCc1nc2c(n1)c1c(non1O)c1c2no[n+]1[O-]` was tested. Which inhibition did it give?
A: active: 54.9%
